Measured values: US20160120863A1, “SLC2A TRANSPORTER INHIBITORS” (IOMET PHARMA LTD., priority 2013, published 2016)

By UniProt entry, the sequences of proteins in these tests, tags left out.
UniProt P11166, whole entry: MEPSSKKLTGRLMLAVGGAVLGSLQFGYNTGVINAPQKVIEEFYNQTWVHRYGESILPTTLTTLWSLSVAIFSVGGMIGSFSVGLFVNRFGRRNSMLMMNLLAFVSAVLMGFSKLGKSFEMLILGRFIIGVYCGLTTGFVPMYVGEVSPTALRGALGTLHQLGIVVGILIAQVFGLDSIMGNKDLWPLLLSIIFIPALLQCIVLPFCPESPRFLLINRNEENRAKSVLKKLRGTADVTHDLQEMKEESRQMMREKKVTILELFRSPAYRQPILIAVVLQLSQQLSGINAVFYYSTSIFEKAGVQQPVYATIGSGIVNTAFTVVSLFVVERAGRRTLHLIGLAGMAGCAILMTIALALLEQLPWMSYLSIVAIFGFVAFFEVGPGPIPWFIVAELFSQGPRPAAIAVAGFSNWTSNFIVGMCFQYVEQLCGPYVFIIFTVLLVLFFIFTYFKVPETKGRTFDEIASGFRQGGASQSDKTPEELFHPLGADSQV
UniProt P14672, whole entry: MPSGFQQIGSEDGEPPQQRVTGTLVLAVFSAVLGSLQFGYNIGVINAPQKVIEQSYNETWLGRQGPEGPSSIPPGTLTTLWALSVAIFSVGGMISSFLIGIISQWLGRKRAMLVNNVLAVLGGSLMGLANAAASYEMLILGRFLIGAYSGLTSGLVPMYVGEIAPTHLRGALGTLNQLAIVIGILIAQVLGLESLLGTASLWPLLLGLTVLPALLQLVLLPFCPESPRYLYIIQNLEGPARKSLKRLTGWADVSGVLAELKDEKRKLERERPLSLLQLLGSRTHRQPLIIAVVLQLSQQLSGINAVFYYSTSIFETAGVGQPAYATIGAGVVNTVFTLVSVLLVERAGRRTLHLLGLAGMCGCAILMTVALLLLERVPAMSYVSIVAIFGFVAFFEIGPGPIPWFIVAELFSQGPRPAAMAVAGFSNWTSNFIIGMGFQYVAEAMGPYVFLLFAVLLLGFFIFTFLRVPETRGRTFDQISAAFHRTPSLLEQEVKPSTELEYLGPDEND
UniProt P11169, whole entry: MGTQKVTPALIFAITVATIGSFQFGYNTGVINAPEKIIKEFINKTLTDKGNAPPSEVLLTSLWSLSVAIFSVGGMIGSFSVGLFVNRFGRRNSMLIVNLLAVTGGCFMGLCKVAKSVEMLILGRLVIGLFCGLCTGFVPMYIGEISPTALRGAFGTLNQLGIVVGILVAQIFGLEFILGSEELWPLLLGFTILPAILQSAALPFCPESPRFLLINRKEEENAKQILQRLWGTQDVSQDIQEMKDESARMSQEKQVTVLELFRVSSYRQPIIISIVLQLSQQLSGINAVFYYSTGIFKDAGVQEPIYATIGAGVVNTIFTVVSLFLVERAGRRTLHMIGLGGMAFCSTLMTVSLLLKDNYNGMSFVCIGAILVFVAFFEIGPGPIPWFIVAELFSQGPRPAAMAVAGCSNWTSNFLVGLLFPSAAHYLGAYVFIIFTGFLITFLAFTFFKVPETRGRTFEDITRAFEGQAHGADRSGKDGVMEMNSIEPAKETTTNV
UniProt P11168, whole entry: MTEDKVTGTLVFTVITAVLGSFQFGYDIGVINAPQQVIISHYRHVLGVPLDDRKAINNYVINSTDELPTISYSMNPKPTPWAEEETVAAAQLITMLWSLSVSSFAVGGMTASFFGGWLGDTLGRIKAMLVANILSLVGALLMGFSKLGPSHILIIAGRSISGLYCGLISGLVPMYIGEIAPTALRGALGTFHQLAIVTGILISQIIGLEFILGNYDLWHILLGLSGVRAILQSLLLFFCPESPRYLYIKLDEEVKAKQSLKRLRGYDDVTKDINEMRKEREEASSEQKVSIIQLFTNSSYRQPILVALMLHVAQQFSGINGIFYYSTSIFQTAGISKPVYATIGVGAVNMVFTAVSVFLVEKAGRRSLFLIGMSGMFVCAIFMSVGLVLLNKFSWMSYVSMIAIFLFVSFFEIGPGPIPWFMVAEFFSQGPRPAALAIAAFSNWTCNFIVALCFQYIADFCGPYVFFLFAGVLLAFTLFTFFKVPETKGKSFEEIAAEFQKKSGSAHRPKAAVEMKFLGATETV

Legend:
human GLUT1 = human GLUT1 (Homo sapiens, UniProt P11166); assay: [3H]-deoxy-D-glucose uptake assay, GLUT1; type: cell-based; settings: [3H]-deoxy-D-glucose uptake in HEK293 cells stably expressing human GLUT1
human GLUT4 = human GLUT4 (Homo sapiens, UniProt P14672); assay: [3H]-deoxy-D-glucose uptake assay, GLUT4; settings: [3H]-deoxy-D-glucose uptake in HEK293 cells stably expressing human GLUT4
Experimental: (§1) HEK293 cells were engineered to stably express either human GLUT1, GLUT2, GLUt3 or GLUT4 by transfection with the pReceiver-Lv105 plasmid, containing either hGLUT1, hGLUT2, hGLUT3, or hGLUT4 gene constructs with lipofectamine 2000, hGLUT1- hGLUT2- hGLUT3- or hGLUT4-overexpressing polyclonal populations were isolated under purinomycin selective pressure (1 μg/ml) and maintained in Dulbecco's modified Eagle's medium supplemented with 1 μg/ml purinomycin+10% foetal bovine serum (FBS).
(§2) 60,000 cells per well were seeded overnight into poly-D-lysine coasted 96-well plates. Following media removal, cells were washed twice in warm glucose-free uptake buffer (25 mM HEPES/KOH pH 7.4, 125 mM NaCl, 4.8 mM KCl, 1.2 mM MgSO4, 1.2 mM CaCl2, 1.2 mM KH2PO4). 90 μl of test compounds were added in glucose-free uptake buffer and cells were incubated at 37° C. for 30 min. 10 μl of [3H]-deoxy-D-glucose (0.25 μCi, 125 μM final assay concentration) was then added per well in glucose-free uptake buffer and uptake was allowed to proceed at 37° C. for 30 min.
(§3) Cells were then washed twice with ice-cold PBS and 100 μl of Microscint-20 was added per well. Glucose uptake was quantified with a scintillation counter. The half maximal inhibitory concentration (IC50) (a measure of the effectiveness of the test compound in inhibiting glucose uptake) was determined.

human GLUT3 = human GLUT3 (Homo sapiens, UniProt P11169); assay: [3H]-deoxy-D-glucose uptake assay, GLUT3; settings: [3H]-deoxy-D-glucose uptake in HEK293 cells stably expressing human GLUT3
Experimental: as §1, §2, §3

human GLUT2 = human GLUT2 (Homo sapiens, UniProt P11168); assay: [3H]-deoxy-D-glucose uptake assay, GLUT2; settings: [3H]-deoxy-D-glucose uptake in HEK293 cells stably expressing human GLUT2

Compound | GLUT1 pIC50 (human GLUT1) | GLUT4 pIC50 (human GLUT4) | GLUT3 pIC50 (human GLUT3) | GLUT2 pIC50 (human GLUT2)
O=C(c1ccnnc1)N1CCN(Cc2c(-c3ccc(Cl)cc3)nc3ccc(C4CC4)cn23)CC1 | +++ (pIC50 ≧ 6.00) |  |  | 
COCC(=O)N1CCN(Cc2c(-c3ccc(Cl)cc3Cl)nc3ccc(N(C)S(C)(=O)=O)cn23)CC1 | +++ (pIC50 ≧ 6.00) | +++ (pIC50 ≧ 6.00) | +++ (pIC50 ≧ 6.00) | ++ (pIC50 5.00-5.99)
COCC(=O)N1CCN(Cc2c(-c3ccc(Cl)cc3)nc3ccc(N4CCCS4(=O)=O)cn23)CC1 | +++ (pIC50 ≧ 6.00) |  |  | +++ (pIC50 ≧ 6.00)
COc1cccc(-c2nc3ccc(-c4ccccc4)cn3c2CN2CCN(C(=O)COc3ccc(Cl)cc3)CC2)c1 | + (pIC50 4.00-4.99) |  |  | 
CN(c1ccc2nc(-c3ccc(Cl)cc3Cl)c(CN3CCN(C(=O)CO)CC3)n2c1)S(C)(=O)=O | +++ (pIC50 ≧ 6.00) | +++ (pIC50 ≧ 6.00) | +++ (pIC50 ≧ 6.00) | +++ (pIC50 ≧ 6.00)
O=C1CN(Cc2c(-c3ccc(Cl)cc3Cl)nc3ccc(-c4ncon4)cn23)CCN1 | +++ (pIC50 ≧ 6.00) |  |  | +++ (pIC50 ≧ 6.00)
O=C1CCC2CN(Cc3c(-c4ccc(Cl)cc4)nc4cnc(C5CC5)cn34)CCN12 (stereo not drawn) | +++ (pIC50 ≧ 6.00) | +++ (pIC50 ≧ 6.00) | +++ (pIC50 ≧ 6.00) | +++ (pIC50 ≧ 6.00)
CS(=O)(=O)Nc1ccc2nc(-c3ccc(Cl)cc3Cl)c(CN3CCN(C(=O)C4CCOCC4)CC3)n2c1 | +++ (pIC50 ≧ 6.00) | +++ (pIC50 ≧ 6.00) | +++ (pIC50 ≧ 6.00) | ++ (pIC50 5.00-5.99)
FC(F)(F)c1ccc2nc(-c3ccc(Cl)cc3)c(CN3CCOCC3)n2c1 | ++ (pIC50 5.00-5.99) |  |  | 
Clc1ccc(-c2nc3ccc(-c4ccccc4)cn3c2CN2CCOCC2)nc1 | +− (pIC50 < 4.00) |  |  | +− (pIC50 < 4.00)
Clc1ccc(-c2nc3ccc(-c4ncccc4Cl)cn3c2CN2CCOCC2)cc1 | +++ (pIC50 ≧ 6.00) |  |  | 
OCc1nc2ccc(-c3ccccc3)cn2c1CN1CCOCC1 | +− (pIC50 < 4.00) |  |  | 
O=C(c1ccc(F)cc1)N1CCN(Cc2c(-c3ccc(Cl)cc3)nc3cnc(C4CC4)cn23)CC1 | +++ (pIC50 ≧ 6.00) |  |  | 
N#Cc1cccnc1-c1ccc2nc(-c3ccc(Cl)cc3)c(CN3CCOCC3)n2c1 | +++ (pIC50 ≧ 6.00) |  |  | ++ (pIC50 5.00-5.99)
Clc1ccc(-c2nc3ccc(-c4ccccc4)cn3c2CN2CCOCC2)c(Cl)c1 | +++ (pIC50 ≧ 6.00) | +++ (pIC50 ≧ 6.00) | +++ (pIC50 ≧ 6.00) | 
O=C(c1ccncn1)N1CCN(Cc2c(-c3ccc(Cl)cc3)nc3ccc(-c4ccccc4)cn23)CC1 | +++ (pIC50 ≧ 6.00) |  |  | 
Clc1ccc(-c2nc3ccc(-c4ccccc4)nn3c2CN2CCOCC2)cc1 | +− (pIC50 < 4.00) |  |  | 
O=C(C1CCOCC1)N1CCN(Cc2c(-c3ccc(Cl)cc3)nc3ccc(C4CC4)cn23)CC1 | +++ (pIC50 ≧ 6.00) |  |  | ++ (pIC50 5.00-5.99)
COCC(=O)N1CCN(Cc2c(-c3ccc(C)cc3)nc3ccc(-c4ccccc4)cn23)CC1 | +++ (pIC50 ≧ 6.00) |  |  | 
FC(F)(F)c1ccccc1-c1ccc2nc(-c3ccc(Cl)cc3)c(CN3CCOCC3)n2c1 | ++ (pIC50 5.00-5.99) |  |  | 
